For 36 compounds, activity change, negative = inhibition results are on record in PubChem BioAssay AID1346378 (National Center for Advancing Translational Sciences (NCATS), 2018).

By UniProt entry, the sequences of proteins in these tests, tags left out.
UniProt Q9BTU6, whole entry: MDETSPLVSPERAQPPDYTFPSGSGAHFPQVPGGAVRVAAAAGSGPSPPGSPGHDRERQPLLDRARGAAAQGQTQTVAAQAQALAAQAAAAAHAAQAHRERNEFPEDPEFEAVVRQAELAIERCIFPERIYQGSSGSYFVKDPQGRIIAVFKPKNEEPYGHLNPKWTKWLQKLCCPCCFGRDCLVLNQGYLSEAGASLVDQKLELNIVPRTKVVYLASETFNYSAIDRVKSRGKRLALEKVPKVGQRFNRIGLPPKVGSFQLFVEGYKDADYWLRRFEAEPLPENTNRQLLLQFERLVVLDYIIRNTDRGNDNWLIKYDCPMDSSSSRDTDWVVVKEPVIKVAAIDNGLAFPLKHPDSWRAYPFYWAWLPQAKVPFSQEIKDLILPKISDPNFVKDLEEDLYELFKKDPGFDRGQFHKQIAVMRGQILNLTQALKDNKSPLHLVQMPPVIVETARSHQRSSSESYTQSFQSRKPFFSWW

“And” between values parts separate entries of the source, which are not always exact repeats. Equal entries are not always repeated. Only a part is listed here, and it is no random draw. Some tests of the compounds listed are not included; inactive here does not mean inactive elsewhere. The source made the active and inactive calls. Cut-off read from the data, not from the text of the source: active = activity change below about -50%; inconclusive = mostly about -30% to -49%; inactive = weaker than that.

The target in the assay is Phosphatidylinositol 4-kinase type 2-alpha (Homo sapiens) (UniProt Q9BTU6). The experiment in a line: qHTS for small molecular inhibitors of PI4K2A.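 Note: -100% = wells without enzyme as full effect.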 The conditions noted are these: purified PI4K2A, ADP-Glo luminescence, 1 h; at 76.9 µM; hits give low values. The source says: The phosphatidylinositol 4-phosphate (PI4P) is emerging as a key regulator of lipid transfer in ER-membrane contact sites. The four different phosphatidylinositol 4-kinase (PI4K) enzymes generate PI4P in different membrane compartments supporting distinct cellular processes many of which are crucial for the maintenance of cellular integrity but also hijacked by intracellular pathogens. The goal of this screening project is to search for small molecular inhibitors of PI4K2A based on a high throughput screening strategy.The ADP-Glo assay was used as a starting point to develop a miniaturized version for HTS applications. To implement the HTS screen, the PI4K ADP-Glotrade mark Kinase assay (Promega, V9102) was miniaturized for the 1536-well format used at NCGC.
For the robotic screening, the ADP-Glo assay using the ADP-Glotrade mark Kinase Assay kit from Promega was miniaturized and optimized on 1536-well white solid bottom plates (Greiner Bio-one). The substrate, 1.2 mM PI, prepared in the assay buffer (40mM Tris pH7.5, 20mM MgCl2, 1mM EGTA, 0.4% Triton X-100, 0.5mM DTT, 0.5mg/ml BSA) and PI4K2A enzyme, diluted also in the assay buffer to 4ug/mL, were dispensed onto the plates in equal volumes (1microl/well), pinned with 23 nL/well tested compounds or control followed by dispensation of 1microl/well 300microM ATP. The plates were incubated for one hour. Then, 2 µL/well of ADP-Glo reagent was added and incubated for 40 minutes. Next, 4microL/well of Kinase Detection Buffer was added to the plates and incubated for additional 40 minutes. All incubation steps were performed at ambient temperature. The resulting luminescence signal was measured on Viewlux plate reader (PerkinElmer). Adenosine, a partial non-specific inhibitor, was used as a positive control at 100microM final concentration to assess the assay's quality and plate-to-plate reproducibility. We also used "no enzyme" control to gauge the assay's maximal potential inhibition (IC100).
On the technique in general: Quantitative high-throughput screening tests each substance at several concentrations.
For the compound `COc1cccc(C(=O)NCC2(N3CCCCC3)CCCCC2)c1`, the activity change, negative = inhibition is inactive: -1.46%. Regarding `COc1ccc(Cl)cc1C(=O)NCC1(N(C)C)CCCCC1`, the activity change, negative = inhibition was inactive: 7.52%. The result for `COc1ccc(C(=O)NCC2(N(C)C)CCCCC2)cc1Cl` reads inactive: 0.835%; that for `O=C(NCC1(N2CCCCC2)CCCCC1)c1cccc(Cl)c1`, inactive: 6.55%; that for `CN(C)C1(CNC(=O)c2ccc(Br)cc2)CCCCC1`, inactive: -8.89%. Take `COc1cc(C(=O)NCC2(N(C)C)CCCCC2)c([N+](=O)[O-])cc1OC`: the activity change, negative = inhibition was inactive: 4.68%. The value for `C=C(C)C#CC(O)(C(=O)OC1CCN(C)CC1)c1ccccc1` (stereo unspecified) was inactive: -6.21%; that for `Cc1cccc(C(=O)NCC2(N(C)C)CCCCC2)c1` was inactive: -1.69%. Regarding `COc1cc(C(=O)NCC2(N(C)C)CCCCC2)cc(OC)c1OC`, the activity change, negative = inhibition was inactive: 1.94%.

With `COc1ccc(Br)c(C(=O)NCC2(N3CCCCC3)CCCCC2)c1`, the activity change, negative = inhibition is inactive: -1.26%. Consider `CC(C)Oc1ccc(C(=O)NCC2(N(C)C)CCCCC2)cc1`, for which the activity change, negative = inhibition is inactive: 1.12% and inactive: -1.88%. The value for `O=C(OCCN1CCCC1)C(O)(c1ccccc1)c1ccccc1` was inactive: 3.65%; that for `CN(C)c1cccc(C(=O)NCC2(N(C)C)CCCCC2)c1` was inactive: 5.29%; that for `COc1cccc(C(=O)NCC2(N3CCOCC3)CCCCC2)c1` was inactive: -5.03%. The result for `O=C(OC1CN2CCC1CC2)C(CO)(c1ccccc1)c1ccccc1` (stereo unspecified) reads inactive: -1.26%. The result for `CC(C)COc1ccc(C(=O)NCC2(N(C)C)CCCCC2)cc1` reads inactive: -7.02%; that for `CCN(CC)CC(C)C(C)OC(=O)C(O)(c1ccccc1)c1ccccc1` (stereo unspecified), inactive: -1.41%; that for `CN(C)C1(CNC(=O)c2cccc(Cl)c2)CCCCC1`, inactive: -4.89%. As for `COc1cc(SC)ccc1C(=O)NCC1(N(C)C)CCCCC1`, the activity change, negative = inhibition was inactive: 0.448%. The result for `CC(C)N1C(=O)CC2(CCN(CCOC(=O)C(O)(c3ccccc3)c3ccccc3)CC2)C1=O` reads inactive: -1.37%. With `Cc1ccc(C(=O)NCC2(N3CCCCC3)CCCCC2)cc1`, the activity change, negative = inhibition was inactive: -0.0953%.

With `CN(C)C1(CNC(=O)c2ccccc2F)CCCCC1`, the activity change, negative = inhibition was inactive: -7.25%.

With `O=C(NCC1(N2CCCCC2)CCCCC1)c1cc([N+](=O)[O-])ccc1Cl`, the activity change, negative = inhibition was inactive: -4.46%. In the case of `CN1[C@@H]2CC[C@H]1CC(OC(=O)C(O)(c1ccccc1)c1ccccc1)C2` (stereo partly specified), the activity change, negative = inhibition is inactive: -2.84%. Take `C=CCN1CCN(CCOC(=O)C(O)(c2ccccc2)c2ccccc2)CC1`: the activity change, negative = inhibition was inactive: -3.71%. As to `O=C(NCC1(N2CCCCC2)CCCCC1)c1cc(F)c(F)cc1Cl`, the activity change, negative = inhibition was inactive: 0.612%. The value for `COc1ccc(C(=O)NCC2(N(C)C)CCCCC2)cc1` was inactive: 3.69%. Regarding `CCOc1cccc(C(=O)NCC2(N(C)C)CCCCC2)c1`, the activity change, negative = inhibition is inactive: -1.7%. Consider `CCN1CCCC(OC(=O)C2(O)c3ccccc3C=Cc3ccccc32)C1` (stereo unspecified), for which the activity change, negative = inhibition was inactive: -2.5%.

In the case of `Cc1cc(C(=O)NCC2(N3CCCCC3)CCCCC2)ccc1[N+](=O)[O-]`, the activity change, negative = inhibition was inactive: 0.705%. The value for `O=C(NCC1(N2CCCCC2)CCCCC1)c1cccc(Br)c1` was inactive: 2.84%; that for `Cc1ccccc1C(=O)NCC1(N2CCCCC2)CCCCC1` was inactive: -0.502%; that for `CN(C)C1(CNC(=O)c2ccccc2[N+](=O)[O-])CCCCC1` was inactive: -1.47%. With `CN(C)c1ccc(C(=O)NCC2(N(C)C)CCCCC2)cc1`, the activity change, negative = inhibition was inactive: 0.567%.

For the compound `CN(C)C1CCCC1OC(=O)C(O)(c1ccccc1)c1ccccc1` (stereo unspecified), the activity change, negative = inhibition is inactive: -0.134%. Take `CCCCOc1ccccc1C(=O)NCC1(N(C)C)CCCCC1`: the activity change, negative = inhibition is inactive: -13.8%.
